Target: recombinant human S1P1 (Homo sapiens (Human), UniProt P21453)
Test: [32P]S1P competitive binding assay on cell membranes
Conditions: vs compound 4 (2.6 nM)

The chains behind the UniProt entries cited, without tags or fusion partners.
UniProt P21453, whole entry: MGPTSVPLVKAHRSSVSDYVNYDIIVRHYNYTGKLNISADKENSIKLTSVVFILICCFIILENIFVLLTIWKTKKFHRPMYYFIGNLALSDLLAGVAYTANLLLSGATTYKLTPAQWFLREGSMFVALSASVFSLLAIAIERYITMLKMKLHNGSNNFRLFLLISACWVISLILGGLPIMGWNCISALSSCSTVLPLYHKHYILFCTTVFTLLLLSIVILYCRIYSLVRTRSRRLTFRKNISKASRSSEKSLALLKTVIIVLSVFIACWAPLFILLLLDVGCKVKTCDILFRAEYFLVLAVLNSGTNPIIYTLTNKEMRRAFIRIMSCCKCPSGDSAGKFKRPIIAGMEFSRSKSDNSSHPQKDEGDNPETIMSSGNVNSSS

Fold increased S1P1 IC50 compared to compound 4: 38 fold
Structure (SMILES): O=C(O)CNCc1ccc(-c2noc(-c3ccc(OCCF)c(C(F)(F)F)c3)n2)cc1
